For experiment [1], the system named is SCLC cell lines and patient-derived SCLC models. The conditions noted are these: soft agar, low density, 21 days, analysed by microscopy.
A further experiment relates to SCLC cell lines. The conditions noted are these: 3 days treatment.

`CCNC(=O)C[C@@H]1N=C(c2ccc(Cl)cc2)c2cc(OC)ccc2-n2c(C)nnc21` [2-[(4S)-6-(4-chlorophenyl)-1-methyl-8-(methyloxy)-4H-[1,2,4]triazolo[4,3-a][1,4]benzodiazepin-4-yl]-N-ethylacetamide]: the colony formation ability entry in experiment [1] is recorded as “attenuates colony formation ability”. Further, in the experiment with SCLC cell lines, the “cell death (caspase 3/7 activation, PARP cleavage, subG1)” value was “induces cell death”.

Values taken from patent US20150238507A1, “BENZODIAZEPINES FOR TREATING SMALL CELL LUNG CANCER” (GlaxoSmithKline LLC, priority 2012, published 2015).
